This experiment addresses rat GLP-1R (rat) (UniProt P32301). Description: cell-based or functional assay.

Chains of the proteins cited; added tags and fusions are not shown. Residues count along the entry.
UniProt P32301, 22-463: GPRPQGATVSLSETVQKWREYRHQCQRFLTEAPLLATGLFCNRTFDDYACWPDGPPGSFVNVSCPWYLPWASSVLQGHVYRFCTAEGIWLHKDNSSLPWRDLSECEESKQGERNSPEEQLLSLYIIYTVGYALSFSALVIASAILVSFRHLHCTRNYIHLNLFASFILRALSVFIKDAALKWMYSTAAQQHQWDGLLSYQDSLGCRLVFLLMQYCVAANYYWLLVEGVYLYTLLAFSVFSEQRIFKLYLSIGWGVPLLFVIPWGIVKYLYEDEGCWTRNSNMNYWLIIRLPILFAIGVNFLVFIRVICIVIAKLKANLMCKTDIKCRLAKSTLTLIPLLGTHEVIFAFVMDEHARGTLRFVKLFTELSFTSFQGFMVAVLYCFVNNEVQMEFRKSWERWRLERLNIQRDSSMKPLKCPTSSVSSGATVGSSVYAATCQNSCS

As to “66.2 kDa EG9 exendin-C-POEGMA conjugate (from UniProt P26349 48-86) (peptide)”, the EC50 (nM) of intracellular cAMP release in BHK cells stably transfected with rat GLP-1R is 2.1 nM.
